Experimental data as given in patent publication US20170251943A1, “Systems Level State Characteristics in Experimental Treatment of Disease” (priority 2014, published 2017).

Test system: rats
Assay: CNS state characterization (LFP PSDs, diencephalic/telencephalic structures) in pharmacological psychosis-like states
Assay type: in vivo, rat

Compound | LFP power spectra of the drug-induced psychosis-like state (Hippocampus, Nucleus Accumbens, Thalamus, pink noise normalized, FIG. 6) | LFP power spectra, MK-801 treated state versus Baseline (FIG. 7)
CNC1(c2ccccc2Cl)CCCCC1=O (centres unmarked) [Ketamine] | high-frequency narrow band oscillation in n. Accumbens | –
C[C@]12N[C@H](Cc3ccccc31)c1ccccc12 [MK-801] | – | could be differentiated from Baseline conditions
